Results reported in patent US20230024108A1, “ADENOSINE A2A RECEPTOR ANTAGONISTS” (Teon Therapeutics, Inc., priority 2019, published 2023).

Amino acid sequences for entries named in this document (tags omitted). A change or cut given only in a name is not applied to a line headed by its entry.
UniProt P30542, whole entry: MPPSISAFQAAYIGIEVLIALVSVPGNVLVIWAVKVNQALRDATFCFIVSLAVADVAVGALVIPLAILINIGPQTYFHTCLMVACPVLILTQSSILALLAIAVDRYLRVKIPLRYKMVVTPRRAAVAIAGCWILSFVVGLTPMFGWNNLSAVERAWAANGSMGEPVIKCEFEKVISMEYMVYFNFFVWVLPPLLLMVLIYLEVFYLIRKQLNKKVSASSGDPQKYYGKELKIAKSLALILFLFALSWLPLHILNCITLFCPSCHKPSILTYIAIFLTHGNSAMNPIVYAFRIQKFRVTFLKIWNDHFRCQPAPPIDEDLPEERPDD
UniProt P29275, whole entry: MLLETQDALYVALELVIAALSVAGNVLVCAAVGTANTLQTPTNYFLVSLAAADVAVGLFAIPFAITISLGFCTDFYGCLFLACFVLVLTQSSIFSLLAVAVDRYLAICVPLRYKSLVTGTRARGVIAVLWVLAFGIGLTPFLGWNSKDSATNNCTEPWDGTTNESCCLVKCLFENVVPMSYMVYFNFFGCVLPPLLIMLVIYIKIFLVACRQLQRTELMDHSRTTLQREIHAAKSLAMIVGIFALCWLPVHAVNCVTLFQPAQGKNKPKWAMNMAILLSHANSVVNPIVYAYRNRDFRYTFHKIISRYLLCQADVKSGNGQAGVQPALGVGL

Tests used:
human A2A AdoR = human A2A AdoR (Homo sapiens, UniProt P29274); experiment: Adenosine receptor binding assay, A2A ([3H]-CGS-21680); conditions: read-out: hA2A IC50; membranes of HEK-293 cells expressing human A2A AdoR
Experimental: (§1) Membranes prepared from CHO-K1 cells stably expressing Human AiAdoR (ES-010-M400UA), HEK-293 cells stably expressing human A2A AdoR (RBHA2AM400UA), HEK-293 cells stably expressing human A2B AdoR (ES-013-M400UA) and CHO-K1 cells stably expressing Human A3 AdoR (ES-012-M400UA) were purchased from PerkinElmer (Waltham, Mass., USA) and stored at −80° C. until use. Binding assays are performed using the radioligands. The final concentrations are as follows: [3H]-DPCPX (PerkinElmer, NET974001MC) at 1 nM for A1AdoR; [^3H]-CGS-21680 (PerkinElmer, NET1021250UC) at 6 nM for A2AAdoR, [3H]-DPCPX (PerkinElmer, NET974001MC) at 8 nM for A2BAdoR; [^3H]-HEMADO (ARC, Cat: ART1456) at 1 nM for A3AdoR. […] Nonspecific binding (Low control: LC) and total binding (High control: HC) are determined in the presence or absence of saturated cold ligand. Specific binding is calculated by subtracting nonspecific binding from total binding. […] The filters are dried for 1 hour at 50° C. and [^3H] trapped on filter counted for radioactivity in Perkin Elmer Microscint 20 cocktail (#6013329) using Perkin Elmer MicroBeta2 Reader. […] Data are analyzed and IC50 is calculated using GraphPad Prism 5 and the model “log(inhibitor) vs. response—Variable slope”. The binding affinity of the compounds is determined by using the Cheng and Prusoff equation Ki=IC50/(1+[radioligand]/Kd).

A1AdoR = A1AdoR (Homo sapiens, UniProt P30542); experiment: Adenosine receptor binding assay, A1 ([3H]-DPCPX); conditions: ratio A1 vs A2A binding
Experimental: as §1

phospho-CREB (pCREB) = experiment: Human whole blood phospho-CREB (pCREB) assay / modulation of pCREB in human immune cells; conditions: read-out: pCREB EC50; agonist (NECA or CGS-21680)-stimulated human blood cells
Experimental: Fresh human blood samples are derived from healthy volunteers and processed in heparin tubes. 67.5 ul of whole blood is aliquoted to each well in a 96-well plate and incubated at 37° C. for 30 min. Testing compounds are diluted with DMSO to make 8-point 3-fold serial dilution and 3.5 ul (20×) is added to each well. Cells are incubated with the compounds at 37° C. for 30 min. NECA (5 uM) is then added to each well and cells are incubated for 30 min at 37° C. Following the stimulation, cells are transferred to a 96-well deep well plates and fixed with 1 ml/well of lyse/fix buffer (1×) (BD Biosciences #558049) with vigorous shake at 37° C. for 10 min. Cells are centrifuged at 600 g for 6 min and washed twice with PBS, followed by addition of 800 ul/well Perm buffer III (BD Biosciences #558050). […] Data were analyzed using FlowJo version 9. The level of CREB phosphorylation from unstimulated cells (Low control: LC) and NECA-stimulated cells (High control: HC) are determined as mean fluorescent intensity (MFI) in stimulated condition/mean fluorescent intensity in unstimulated condition. % Inhibition is calculated as (MFI of HC-MFI of assay well)/(MFI of HC-MFI of LC)×100%. Data are analyzed and IC50s calculated using GraphPad Prism 5 and the model “log(inhibitor) vs. response—Variable slope”. […]

human A2B AdoR = human A2B AdoR (Homo sapiens, UniProt P29275); experiment: Adenosine receptor binding assay, A2B ([3H]-DPCPX); conditions: ratio A2B vs A2A binding
Experimental: as §1

IC50 (human A2A AdoR): < 20 nM | EC50 (phospho-CREB (pCREB)): 20 to 100 nM | A2B/A2A Selectivity (human A2B AdoR): a (greater than 1000)
SMILES: N#Cc1cc2c(nc(N)n3nc(-c4ccccn4)nc23)n1CCN1CCN(c2ccc(OCC(=O)O)cc2)CC1
A1/A2A Selectivity (A1AdoR): b (greater than 100 but less than or equal to 1000)
